One molecule from US11801272B2, “Bacillus strains improving health and performance of production animals” (Novozymes A/S, priority 2015, dated 2023) can be followed below.

The subject of the experiment is S. aureus ATCC 29213. The experiment can be described thus: microbe, parasite or virus in culture. Conditions: Staphylococcus aureus.

Values after ≈ are worked out from the molar mass of the structure shown. Read-outs that look alike come from different tables or passages of the source.

In the case of `CN[C@H](CC(C)C)C(=O)N[C@H]1C(=O)N[C@@H](CC(N)=O)C(=O)N[C@H]2C(=O)N[C@H]3C(=O)N[C@H](C(=O)N[C@H](C(=O)O)c4cc(O)cc(O)c4-c4cc3ccc4O)[C@H](O)c3ccc(c(Cl)c3)Oc3cc2cc(c3O[C@@H]2O[C@H](CO)[C@@H](O)[C@H](O)[C@H]2O[C@H]2C[C@](C)(N)[C@H](O)[C@H](C)O2)Oc2ccc(cc2Cl)[C@H]1O` [Vancomycin], the MIC by setting is: (ATCC29213, read-out: MIC 1) 0.5 µg/mL (≈ 0.345 µM); (ATCC29213, read-out: MIC 2) 1 µg/mL (≈ 0.69 µM); (ATCC29213, read-out: MIC 3) 1 µg/mL (≈ 0.69 µM); (ATCC29213, read-out: MIC 4) 1 µg/mL (≈ 0.69 µM); (ATCC29213, read-out: MIC 5) 1 µg/mL (≈ 0.69 µM).
